# System: OATP1B
# Assay: Nonlinear regression of AUCR^-1 vs rifampicin Cmax
# Type: in vivo, human
# Settings: from AUCR based on AUC0-24h
substance,measurement,value
coproporphyrin I [CP-I],fRIF (fraction sensitive to inhibition by rifampicin),0.943 ± 0.072

# Source: paper PMC7158214 (Clinical Pharmacology and Therapeutics, 2020)
